Assay results from US7192924B2, “Corticotropin releasing factor 2 receptor agonists” (priority 2002, dated 2007).
Where two headings read alike, the source gives them in different places.

Columns and labels:
CRF2R = target: T1, CRF2R (Homo sapiens, UniProt Q13324); experiment: CRF2R agonist activity (EC50, Emax), called comparative CRF binding; format: cell-based
T1 sequence (Q13324 1-411): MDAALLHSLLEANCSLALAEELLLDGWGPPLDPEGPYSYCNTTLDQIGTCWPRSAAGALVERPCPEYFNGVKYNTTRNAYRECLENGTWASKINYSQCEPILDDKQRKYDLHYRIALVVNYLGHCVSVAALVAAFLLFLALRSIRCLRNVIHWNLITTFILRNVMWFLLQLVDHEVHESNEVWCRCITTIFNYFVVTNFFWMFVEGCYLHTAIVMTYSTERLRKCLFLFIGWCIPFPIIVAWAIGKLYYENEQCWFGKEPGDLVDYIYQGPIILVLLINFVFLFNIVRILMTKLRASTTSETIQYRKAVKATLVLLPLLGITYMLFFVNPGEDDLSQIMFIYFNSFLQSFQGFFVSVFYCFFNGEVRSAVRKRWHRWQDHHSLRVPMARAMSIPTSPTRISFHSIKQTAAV
Outline: (§1)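 Agonism is judged from increased cAMP, measured either directly in lysates or through reporter genes under a cAMP responsive element. Cells or membranes express only the receptor of interest, and vehicle-treated cells serve as control.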

CRF1R = target: T2, CRF1R (Homo sapiens, UniProt P34998); experiment: CRF1R agonist activity (EC50, Emax), called comparative CRF binding; format: cell-based
T2 sequence (P34998 24-415): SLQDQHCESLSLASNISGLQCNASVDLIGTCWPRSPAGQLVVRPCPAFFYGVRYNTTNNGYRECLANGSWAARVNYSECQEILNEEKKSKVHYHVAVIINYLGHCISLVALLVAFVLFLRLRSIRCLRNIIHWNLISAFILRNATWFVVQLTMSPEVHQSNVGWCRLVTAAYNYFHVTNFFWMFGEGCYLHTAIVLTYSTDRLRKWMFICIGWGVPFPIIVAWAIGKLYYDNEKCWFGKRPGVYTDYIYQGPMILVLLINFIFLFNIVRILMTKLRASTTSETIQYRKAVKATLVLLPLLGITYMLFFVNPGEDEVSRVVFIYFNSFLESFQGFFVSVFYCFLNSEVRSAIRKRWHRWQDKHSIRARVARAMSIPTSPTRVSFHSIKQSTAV
Outline: as §1

Compound | EC50 (CRF2R; read-out: CRF2R EC50) [nM] | EC50 (CRF1R; read-out: CRF1R EC50) [nM] | EC50 (CRF2R) [nM] | EC50 (CRF1R) [nM]
CC[C@H](C)[C@H](NC(=O)[C@H](CCCNC(=N)N)NC(=O)[C@H](C)NC(=O)[C@H](CC(N)=O)NC(=O)[C@@H](NC(=O)[C@@H](NC(=O)[C@H](C)NC(=O)[C@H](CCC(N)=O)NC(=O)[C@H](CCC(N)=O)NC(=O)[C@H](CCCCN)NC(=O)[C@H](CCC(=O)O)NC(=O)[C@H](CCCCN)NC(=O)[C@H](CCC(=O)O)NC(=O)[C@H](CCC(N)=O)NC(=O)[C@H](CCCCN)NC(=O)[C@H](CCC(=O)O)NC(=O)[C@@H](NC(=O)[C@H](CCC(=O)O)NC(=O)[C@@H](NC(=O)[C@H](CCSC)NC(=O)[C@H](CCCCN)NC(=O)[C@H](CCCNC(=N)N)NC(=O)[C@H](CC(C)C)NC(=O)[C@H](CC(C)C)NC(=O)[C@H](CCC(N)=O)NC(=O)[C@@H](NC(=O)[C@@H]1CCCN1C(=O)[C@H](CC(C)C)NC(=O)[C@H](CC(=O)O)NC(=O)[C@@H](NC(=O)[C@H](CO)NC(=O)[C@@H](NC(=O)[C@@H]1CCCN1C(=O)[C@@H]1CCCN1C(=O)CNC(=O)[C@@H]1CCC(=O)N1)[C@@H](C)CC)[C@@H](C)CC)[C@@H](C)CC)[C@@H](C)CC)[C@@H](C)CC)[C@@H](C)O)[C@@H](C)O)C(=O)N[C@@H](CC(C)C)C(=O)N[C@@H](C)C(=O)N[C@@H](CCCNC(=N)N)C(=O)N[C@H](C(N)=O)C(C)C [compound 150] | 34.6 | ≥ 1000 |  | 
CC[C@H](C)[C@H](NC(=O)[C@H](CCC(=O)O)NC(=O)[C@@H](NC(=O)[C@H](CCSC)NC(=O)[C@H](CCCCN)NC(=O)[C@H](CCCNC(=N)N)NC(=O)[C@H](CC(C)C)NC(=O)[C@H](CC(C)C)NC(=O)[C@H](Cc1ccc(O)cc1)NC(=O)[C@H](CC(C)C)NC(=O)[C@@H]1CCCN1C(=O)[C@H](CC(C)C)NC(=O)[C@H](CC(=O)O)NC(=O)[C@@H](NC(=O)[C@H](CO)NC(=O)[C@@H](NC(=O)[C@@H]1CCCN1C(=O)[C@@H]1CCCN1C(=O)CNC(=O)[C@@H]1CCC(=O)N1)[C@@H](C)CC)[C@@H](C)CC)[C@@H](C)CC)C(=O)N[C@@H](CCC(=O)O)C(=O)N[C@@H](CCCCN)C(=O)N[C@@H](CCC(N)=O)C(=O)N[C@@H](CCC(=O)O)C(=O)N[C@@H](CCCCN)C(=O)N[C@@H](CCC(=O)O)C(=O)N[C@@H](CCCCN)C(=O)N[C@@H](CCC(N)=O)C(=O)N[C@@H](CCC(N)=O)C(=O)N[C@@H](C)C(=O)N[C@H](C(=O)N[C@H](C(=O)N[C@@H](CC(N)=O)C(=O)N[C@@H](C)C(=O)N[C@@H](CCCNC(=N)N)C(=O)N[C@@H](CC(C)C)C(=O)N[C@@H](CC(C)C)C(=O)N[C@@H](CC(=O)O)C(=O)N[C@H](C(=O)N[C@H](C(N)=O)C(C)C)[C@@H](C)O)[C@@H](C)O)[C@@H](C)O [compound 242] |  |  | 29 | 358
CC[C@H](C)[C@H](NC(=O)[C@@H](NC(=O)[C@H](CC(=O)O)NC(=O)[C@H](CC(C)C)NC(=O)[C@H](CC(C)C)NC(=O)[C@H](CC(C)C)NC(=O)[C@H](C)NC(=O)[C@H](CC(N)=O)NC(=O)[C@H](CC(N)=O)NC(=O)[C@H](C)NC(=O)[C@H](C)NC(=O)[C@H](CCC(N)=O)NC(=O)[C@H](CCC(N)=O)NC(=O)[C@H](CCCCN)NC(=O)[C@H](CCC(=O)O)NC(=O)[C@H](CCCCN)NC(=O)[C@H](CCC(=O)O)NC(=O)[C@H](CCC(N)=O)NC(=O)[C@H](CCCCN)NC(=O)[C@H](CCC(=O)O)NC(=O)[C@@H](NC(=O)[C@H](CCC(=O)O)NC(=O)[C@@H](NC(=O)[C@H](CCSC)NC(=O)[C@H](CCCCN)NC(=O)[C@H](CCCNC(=N)N)NC(=O)[C@H](CC(C)C)NC(=O)[C@H](CC(C)C)NC(=O)[C@H](Cc1ccc(O)cc1)NC(=O)[C@@H](NC(=O)[C@@H]1CCCN1C(=O)[C@H](CC(C)C)NC(=O)[C@H](CC(=O)O)NC(=O)[C@@H](NC(=O)[C@H](CO)NC(=O)[C@@H](NC(=O)[C@@H]1CCCN1C(=O)[C@@H]1CCCN1C(=O)CNC(=O)[C@@H]1CCC(=O)N1)[C@@H](C)CC)[C@@H](C)CC)[C@@H](C)CC)[C@@H](C)CC)[C@@H](C)CC)[C@@H](C)O)C(N)=O [compound 236] | 40.4 | ≥ 1000 |  | 
CC[C@H](C)[C@H](NC(=O)[C@@H](NC(=O)[C@H](CC(=O)O)NC(=O)[C@H](CC(C)C)NC(=O)[C@H](CC(C)C)NC(=O)[C@H](CC(C)C)NC(=O)[C@H](CCCNC(=N)N)NC(=O)[C@H](CC(N)=O)NC(=O)[C@H](CC(N)=O)NC(=O)[C@H](C)NC(=O)[C@H](C)NC(=O)[C@H](CCC(N)=O)NC(=O)[C@H](CCC(N)=O)NC(=O)[C@H](CCCCN)NC(=O)[C@H](CCC(=O)O)NC(=O)[C@H](CCCCN)NC(=O)[C@H](CCC(=O)O)NC(=O)[C@H](CCC(N)=O)NC(=O)[C@H](CCCCN)NC(=O)[C@H](CCC(=O)O)NC(=O)[C@@H](NC(=O)[C@H](CCC(=O)O)NC(=O)[C@@H](NC(=O)[C@H](CCSC)NC(=O)[C@H](CCCCN)NC(=O)[C@H](CCCNC(=N)N)NC(=O)[C@H](CC(C)C)NC(=O)[C@H](CC(C)C)NC(=O)[C@@H](NC(=O)[C@@H](NC(=O)[C@@H]1CCCN1C(=O)[C@H](CC(C)C)NC(=O)[C@H](CC(=O)O)NC(=O)[C@@H](NC(=O)[C@H](CO)NC(=O)[C@@H](NC(=O)[C@@H]1CCCN1C(=O)[C@@H]1CCCN1C(=O)CNC(=O)[C@@H]1CCC(=O)N1)[C@@H](C)CC)[C@@H](C)CC)[C@@H](C)CC)[C@@H](C)CC)[C@@H](C)CC)[C@@H](C)CC)[C@@H](C)O)C(N)=O [compound 36] | 14.8 | > 1000 |  | 
CC[C@H](C)[C@H](NC(=O)[C@H](CCC(=O)O)NC(=O)[C@@H](NC(=O)[C@H](CCSC)NC(=O)[C@H](CCCCN)NC(=O)[C@H](CCCNC(=N)N)NC(=O)[C@H](CC(C)C)NC(=O)[C@H](CC(C)C)NC(=O)[C@H](CCC(N)=O)NC(=O)[C@H](Cc1ccccc1)NC(=O)[C@@H]1CCCN1C(=O)[C@H](CC(C)C)NC(=O)[C@H](CC(=O)O)NC(=O)[C@@H](NC(=O)[C@H](CO)NC(=O)[C@@H](NC(=O)[C@@H]1CCCN1C(=O)[C@@H]1CCCN1C(=O)CNC(=O)[C@@H]1CCC(=O)N1)[C@@H](C)CC)[C@@H](C)CC)[C@@H](C)CC)C(=O)N[C@@H](CCC(=O)O)C(=O)N[C@@H](CCCCN)C(=O)N[C@@H](CCC(N)=O)C(=O)N[C@@H](CCC(=O)O)C(=O)N[C@@H](CCCCN)C(=O)N[C@@H](CCC(=O)O)C(=O)N[C@@H](CCCCN)C(=O)N[C@@H](CCC(N)=O)C(=O)N[C@@H](CCC(N)=O)C(=O)N[C@@H](C)C(=O)N[C@H](C(=O)N[C@H](C(=O)N[C@@H](CC(N)=O)C(=O)N[C@@H](C)C(=O)N[C@@H](CCCNC(=N)N)C(=O)N[C@@H](CC(C)C)C(=O)N[C@@H](CC(C)C)C(=O)N[C@@H](CC(=O)O)C(=O)N[C@H](C(=O)N[C@H](C(N)=O)C(C)C)[C@@H](C)O)[C@@H](C)O)[C@@H](C)O [compound 20] |  |  | 7.81 | 906
CC[C@H](C)[C@H](NC(=O)[C@@H](NC(=O)[C@H](CC(=O)O)NC(=O)[C@H](CC(C)C)NC(=O)[C@H](CC(C)C)NC(=O)[C@H](CC(C)C)NC(=O)[C@H](CCCNC(=N)N)NC(=O)[C@H](CC(N)=O)NC(=O)[C@H](CC(N)=O)NC(=O)[C@H](C)NC(=O)[C@H](C)NC(=O)[C@H](CCC(N)=O)NC(=O)[C@H](CCC(N)=O)NC(=O)[C@H](CCCCN)NC(=O)[C@H](CCC(=O)O)NC(=O)[C@H](CCCCN)NC(=O)[C@H](CCC(=O)O)NC(=O)[C@H](CCC(N)=O)NC(=O)[C@H](CCCCN)NC(=O)[C@H](CCC(=O)O)NC(=O)[C@@H](NC(=O)[C@H](CCC(=O)O)NC(=O)[C@@H](NC(=O)[C@H](CCSC)NC(=O)[C@H](CCCCN)NC(=O)[C@H](CCCNC(=N)N)NC(=O)[C@H](CC(C)C)NC(=O)[C@H](CC(C)C)NC(=O)[C@H](CC(C)C)NC(=O)[C@H](CCC(N)=O)NC(=O)[C@@H]1CCCN1C(=O)[C@H](CC(C)C)NC(=O)[C@H](CC(=O)O)NC(=O)[C@@H](NC(=O)[C@H](CO)NC(=O)[C@@H](NC(=O)[C@@H]1CCCN1C(=O)[C@@H]1CCCN1C(=O)CNC(=O)[C@@H]1CCC(=O)N1)[C@@H](C)CC)[C@@H](C)CC)[C@@H](C)CC)[C@@H](C)CC)[C@@H](C)O)C(N)=O [compound 196] |  |  | 27.7 | 447
